The source of these data is patent US7825132B2, “Inhibition of FGFR3 and treatment of multiple myeloma” (Novartis Vaccines and Diagnostics, Inc., priority 2002, dated 2010).

The test system of series [1] is OPM-2 cells. The conditions noted are these: Grand et al., Leukemia 2004; cited from earlier work.
The test system of series [2] is FGF-2 supplemented Matrigel neovascularization. The conditions noted are these: 100 mg/kg.
The test system of series [3] is 4T1 (mouse breast cancer). Briefly: cells.
Series [4] deals with MDA-MB435 (breast cancer). The experiment in a line: cells. The conditions noted are these: Homo sapiens, MDA-MB-435.
Series [5] concerns SKOV3 (ovarian cancer). Briefly: cells. The conditions noted are these: Homo sapiens, SK-OV-3.
Series [6] concerns K562 (CML). The experiment in a line: cells. The following applies: Homo sapiens.
The subject of series [7] is Ku812 (CML). Briefly: cells. The following applies: Homo sapiens.
For series [8], the system named is MOLT-4 (ALL). The experiment in a line: cells. The following applies: Homo sapiens.
The subject of series [9] is ARH77 (multiple myeloma). The experiment in a line: cells. The conditions noted are these: Homo sapiens, ARH-77.
The subject of series [10] is HCT116 (colon cancer). The experiment in a line: cells. The following applies: Homo sapiens, HCT-116.
In series [11] the test system is Du145 (prostate cancer). Briefly: cells. The conditions noted are these: Homo sapiens, DU-145.
Series [12] has as its system H209 (lung cancer). Briefly: cells. The conditions noted are these: Homo sapiens, NCI-H209.
The test system of series [13] is H226 (lung cancer). The experiment in a line: cells. The following applies: Homo sapiens, NCI-H226.
Series [14] relates to HT29 (colon cancer). Briefly: cells. The following applies: Homo sapiens, HT-29.
The subject of series [15] is SW620 (colon cancer). The experiment in a line: cells. The conditions noted are these: Homo sapiens, SW-620.
For series [16], the system named is PrC (normal prostate epithelium). Briefly: cells. The following applies: Homo sapiens.
Series [17] deals with HMEC (normal mammary epithelium). The experiment in a line: cells. The following applies: Homo sapiens.

Regarding SU5402, the “cytotoxic response / apoptosis in OPM2 cells” value in series [1] was “induced cytotoxic responses”.
The EC50 is the concentration giving half of the maximal effect. Read a low EC50 as a more potent agent. As to `CN1CCN(c2ccc3nc(-c4c(N)c5c(F)cccc5[nH]c4=O)[nH]c3c2)CC1` [Compound 1], the “% Hb inhibition vs. Vehicle treatment of Matrigel + FGF” value in series [2] is 80%. The EC50 in series [3] is 0.4 to 1 µM; in series [4] it was 1 to 10 µM; in series [5], 1 to 10 µM; in [6], 1 to 10 µM; in [7], 1 to 10 µM; in series [8], 1 to 10 µM. Besides, the EC50 in series [9], in series [10], in series [11], in series [12], in [13] and in series [14] was 1 to 10 µM throughout. For the same molecule, the EC50 in [15], in series [16] and in series [17] was 1 to 10 µM in each case.
